# From patent US20200255511A1 (TILLOTTS PHARMA, published 2020)
# By UniProt entry, the sequences of proteins in these tests, tags left out. Residues count along the entry.
# UniProt P55899, 24-297 limits assumed, chain 1 of 2: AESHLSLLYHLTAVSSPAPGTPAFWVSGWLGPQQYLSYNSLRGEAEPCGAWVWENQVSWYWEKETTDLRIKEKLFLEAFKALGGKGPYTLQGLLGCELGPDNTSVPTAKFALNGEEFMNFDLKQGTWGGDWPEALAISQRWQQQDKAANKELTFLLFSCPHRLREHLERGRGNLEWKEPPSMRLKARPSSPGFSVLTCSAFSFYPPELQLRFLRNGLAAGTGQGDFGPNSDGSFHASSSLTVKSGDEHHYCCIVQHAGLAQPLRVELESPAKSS
# B1: infliximab (antibody)
# chain 1: not shown
# chain 2: DILLTQSPAILSVSPGERVSFSCRASQFVGSSIHWYQQRTNGSPRLLIKYASESMSGIPSRFSGSGSGTDFTLSINTVESEDIADYYCQQSHSWPFTFGSGTNLEVKRTVAAPSVFIFPPSDEQLKSGTASVVCLLNNFYPREAKVQWKVDNALQSGNSQESVTEQDSKDSTYSLSSTLTLSKADYEKHKVYACEVTHQGLSSPVTKSFNRGEC
# Biological target: T1, monomeric His-tagged human FcRn (human, UniProt P55899 24-297; P61769 21-119, limits assumed)
# T1 construct: also called hFcRn
# Test: SPR (Biacore 3000) at pH 6.0, antibody amine-coupled, monomeric His-tagged hFcRn as analyte, 25 °C
binder,measurement,value
B1,Kd,425 nM
